Patent US20230203081A1, “LINCOSAMIDE ANTIBIOTICS AND USES THEREOF” (President and Fellows of Harvard College, priority 2020, published 2023)

How the values were obtained:
[1] = tested on: S. pneumoniae MMX 3028 cErmB; assay: MIC (broth microdilution or agar dilution, CLSI); assay type: cell-based; conditions: Streptococcus pneumoniae, MMX3028CERMB, S. pneumoniae HAV#033
S. aureus MMX 3035 cErmA = assay: MIC (broth microdilution or agar dilution, CLSI); assay type: cell-based; conditions: Staphylococcus aureus, MMX3035CERMA, S. aureus HAV#031, MMX 3035
[2] = tested on: S. pyogenes MMX 946; cErmB; assay: MIC (broth microdilution or agar dilution, CLSI); assay type: cell-based; conditions: Streptococcus pyogenes, S. pyogenes HAV#035, MMX 946, mac-resistant
[3] = tested on: broad panel of different clinical isolates; assay: microbe, parasite or virus in culture; assay type: cell-based
S. pyogenes ATCC 19615 = assay type: in vivo
Description: Mouse systemic infection study: S. pyogenes ATCC 19615 was cultured overnight on blood agar plates in 5% CO2 at 35° C. before being suspended in BHIB. The optical density of the bacterial suspension was adjusted to 0.1 at 600 nm using sterile BHIB and was then further diluted 1:1 in 10% hog gastric mucin (HGM, type III) to prepare the infecting inoculum in 5% HGM. Mice were infected by intraperitoneal injection of 250 μL, infecting inoculum, representing 1-2×10^6 CFU per animal. At time points 1, 5, 17, and 29 h post-infection, animals were administered intravenous infusions of FSA-513018b (1, 3, or 10 mg/kg, 250 μL in 10% Captisol; […]; 8 mice per dose level), or vehicle as negative control (10% Captisol, 250 μL; 10 mice). Animals were monitored for survival for seven days following infection.

[4] = tested on: E. faecalis MMX 847; cErmB; assay: MIC (broth microdilution or agar dilution, CLSI); assay type: cell-based; conditions: Enterococcus faecalis, E. faecalis HAV#036, MMX 847, mac-resistant

Question: How did the MIC [1] turn out when `CCC[C@@H]1C[C@@H](C(=O)N[C@@H]([C@H]2O[C@H](SC)[C@H](O)[C@@H](O)[C@H]2O)[C@H](C)Cl)N(C)C1` [Clindamycin, clindamycin, reference compound] was run?
Answer: 256 µg/mL (≈ 602 µM)

Question: And the MIC (S. aureus MMX 3035 cErmA)?
Answer: > 256 µg/mL

Question: What about the MIC [2] of the same compound?
Answer: > 256 µg/mL

Question: And the MIC ([3]; Enterococcus faecalis, E. faecalis HAV#607, Clinical)?
Answer: > 256 µg/mL

Question: What about the MIC ([3]; Enterococcus faecalis, E. faecalis HAV#608, Clinical) of the same compound?
Answer: > 256 µg/mL

Question: What about the MIC ([3]; Enterococcus faecalis, E. faecalis HAV#609, Clinical) of the same compound?
Answer: > 256 µg/mL

Question: And the MIC ([3]; Enterococcus faecalis, E. faecalis HAV#610, Clinical)?
Answer: > 256 µg/mL

Question: And the MIC ([3]; Enterococcus faecalis, VRE, E. faecalis HAV#606, Clinical)?
Answer: > 256 µg/mL

Question: What about the MIC ([3]; Enterococcus faecium, E. faecium HAV#324, Clinical) of the same compound?
Answer: > 256 µg/mL

Question: And the MIC ([3]; Enterococcus faecium, E. faecium HAV#328, Clinical)?
Answer: > 256 µg/mL

Question: And the MIC ([3]; Enterococcus faecium, E. faecium HAV#329, Clinical)?
Answer: > 256 µg/mL

Question: What about the MIC ([3]; Klebsiella pneumoniae, K. pneumoniae HAV#041, Clinical, KPC) of the same compound?
Answer: 256 µg/mL (≈ 602 µM)

Question: What about the MIC ([3]; Staphylococcus aureus, S. aureus HAV#054, mecA, norA, spcl, aad1, fosB, ermA, aac6′-aph2″, blaZ) of the same compound?
Answer: > 256 µg/mL

Question: What about the Mice surviving (S. pyogenes ATCC 19615; 1 mg/kg i.v., Day 1, n=8, clindamycin given as clindamycin phosphate) of the same compound?
Answer: 8

Question: What about the Mice surviving (S. pyogenes ATCC 19615; 1 mg/kg i.v., Day 2, n=8) of the same compound?
Answer: 8

Question: What about the Mice surviving (S. pyogenes ATCC 19615; 1 mg/kg i.v., Day 3, n=8) of the same compound?
Answer: 8

Question: And the Mice surviving (S. pyogenes ATCC 19615; 1 mg/kg i.v., Day 4, n=8)?
Answer: 8

Question: And the Mice surviving (S. pyogenes ATCC 19615; 1 mg/kg i.v., Day 5, n=8)?
Answer: 8

Question: What about the Mice surviving (S. pyogenes ATCC 19615; 1 mg/kg i.v., Day 6, n=8) of the same compound?
Answer: 8

Question: And the Mice surviving (S. pyogenes ATCC 19615; 1 mg/kg i.v., Day 7, n=8)?
Answer: 8

Question: And the Mice surviving (S. pyogenes ATCC 19615; 3 mg/kg i.v., Day 1, n=8)?
Answer: 8

Question: And the Mice surviving (S. pyogenes ATCC 19615; 3 mg/kg i.v., Day 2, n=8)?
Answer: 8

Question: And the Mice surviving (S. pyogenes ATCC 19615; 3 mg/kg i.v., Day 3, n=8)?
Answer: 8

Question: What about the Mice surviving (S. pyogenes ATCC 19615; 3 mg/kg i.v., Day 4, n=8) of the same compound?
Answer: 8

Question: What about the Mice surviving (S. pyogenes ATCC 19615; 3 mg/kg i.v., Day 5, n=8) of the same compound?
Answer: 8

Question: And the Mice surviving (S. pyogenes ATCC 19615; 3 mg/kg i.v., Day 6, n=8)?
Answer: 8

Question: What about the Mice surviving (S. pyogenes ATCC 19615; 3 mg/kg i.v., Day 7, n=8) of the same compound?
Answer: 8

Question: And the Mice surviving (S. pyogenes ATCC 19615; 10 mg/kg i.v., Day 1, n=8)?
Answer: 8

Question: And the Mice surviving (S. pyogenes ATCC 19615; 10 mg/kg i.v., Day 2, n=8)?
Answer: 7

Question: And the Mice surviving (S. pyogenes ATCC 19615; 10 mg/kg i.v., Day 3, n=8)?
Answer: 7

Question: And the Mice surviving (S. pyogenes ATCC 19615; 10 mg/kg i.v., Day 4, n=8)?
Answer: 7

Question: And the Mice surviving (S. pyogenes ATCC 19615; 10 mg/kg i.v., Day 5, n=8)?
Answer: 7

Question: What about the Mice surviving (S. pyogenes ATCC 19615; 10 mg/kg i.v., Day 6, n=8) of the same compound?
Answer: 7

Question: And the Mice surviving (S. pyogenes ATCC 19615; 10 mg/kg i.v., Day 7, n=8)?
Answer: 7

Question: What about the MIC [4] of the same compound?
Answer: > 256 µg/mL

≈ marks a conversion by molar mass, not a printed value. Like-named read-outs stand apart in the source and are kept apart here.
